US7303915B2, “In vitro-differentiated retinal ganglion cells and method for producing same” (Wisconsin Alumni Research Foundation, priority 2005, dated 2007)

Test system: ERK2 T185/Y187
Test: Kinetworks KPSS 2.1 phosphorylation screen, ERK2 T185/Y187
Format: cell-based, rat
Conditions: 1 μM for 5 minutes

CN[C@@H]1C[C@H]2O[C@@](C)([C@@H]1OC)n1c3ccccc3c3c4c(c5c6ccccc6n2c5c31)C(=O)NC4 [staurosporine]
decrease in phosphorylation of ERK2 T185/Y187 vs control: 59%
